GI50 and TGI data for one compound are collected here from PubChem BioAssay (NCI).

The subject of the assay is SW-620 colon. The assay can be described thus: NCI tumour cell line growth inhibition, 48 h.

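Method: 48-hour compound exposure of cells in 96-well plates, five concentrations, linear interpolation of endpoints. GI50 is the concentration that inhibits growth by half. The concentration for full growth arrest is given as TGI.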

For `CC[C@H](C)[C@H]1NC(=O)/C(=C(\C)O)C1=O`, the GI50 is 21.4 µM and the TGI stood at 76.5 µM.
